For 1 molecule, Ratio IC50/EC50 results are on record in ChEMBL document CHEMBL2203025, “6,7-Dihydroxy-1-oxoisoindoline-4-sulfonamide-containing HIV-1 integrase inhibitors” (Bioorg Med Chem Lett, 2012).

The subject of the assay is Human immunodeficiency virus. Kind of assay: Ratio of IC50 for HIV1 integrase strand transfer activity to EC50 for HIV1 expressing wild type integrase.

For `CN1CCN(S(=O)(=O)c2cc(O)c(O)c3c2CN(Cc2ccc(F)c(Cl)c2)C3=O)CC1`, the Ratio IC50/EC50 came to 10.
